The source calls these results inconclusive, neither active nor inactive. Unless noted, calls come from the whole dose curve; as a rule, active = well fitted curve in the direction sought with a large enough effect in the repeat runs; inconclusive = weak or mixed curves; inactive = no such curve, though single readings can be large; an effect the other way counts as inactive or inconclusive.
Assays:
[1] = qHTS assay to identify small molecule antagonists of the retinoic acid receptor (RAR) signaling pathway (AID 1159552; note: potency is the fitted concentration of half-maximal effect; nearly all actives have a fitted effect of over 50% in size); conditions: C3RL4 RARE luciferase reporter, retinol-stimulated, 6 h
Outline: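 Luminescent RARE reporter read-out in C3RL4 cells: 6 hr co-treatment at 37 C of test compounds with retinol at 1 uM final. Cells plated overnight beforehand; luciferase reagent incubated 30 min at room temperature before reading.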

Amino acid sequences for entries named in this document (tags omitted). A change or cut given only in a name is not applied to a line headed by its entry.
UniProt Q92731, whole entry, looked up: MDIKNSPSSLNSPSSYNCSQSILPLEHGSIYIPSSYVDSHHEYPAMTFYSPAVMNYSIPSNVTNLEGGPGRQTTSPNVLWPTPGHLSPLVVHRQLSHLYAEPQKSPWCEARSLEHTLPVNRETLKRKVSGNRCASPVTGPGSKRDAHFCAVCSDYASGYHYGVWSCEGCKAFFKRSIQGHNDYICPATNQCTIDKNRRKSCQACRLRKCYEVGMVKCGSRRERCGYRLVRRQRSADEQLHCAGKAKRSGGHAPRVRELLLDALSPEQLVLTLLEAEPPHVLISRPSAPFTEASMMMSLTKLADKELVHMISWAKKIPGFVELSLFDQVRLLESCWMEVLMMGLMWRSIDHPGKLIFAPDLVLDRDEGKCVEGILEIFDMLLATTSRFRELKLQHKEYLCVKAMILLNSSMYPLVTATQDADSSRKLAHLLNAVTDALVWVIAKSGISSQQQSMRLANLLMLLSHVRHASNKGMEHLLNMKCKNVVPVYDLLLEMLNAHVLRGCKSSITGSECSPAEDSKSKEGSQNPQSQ
UniProt P04150: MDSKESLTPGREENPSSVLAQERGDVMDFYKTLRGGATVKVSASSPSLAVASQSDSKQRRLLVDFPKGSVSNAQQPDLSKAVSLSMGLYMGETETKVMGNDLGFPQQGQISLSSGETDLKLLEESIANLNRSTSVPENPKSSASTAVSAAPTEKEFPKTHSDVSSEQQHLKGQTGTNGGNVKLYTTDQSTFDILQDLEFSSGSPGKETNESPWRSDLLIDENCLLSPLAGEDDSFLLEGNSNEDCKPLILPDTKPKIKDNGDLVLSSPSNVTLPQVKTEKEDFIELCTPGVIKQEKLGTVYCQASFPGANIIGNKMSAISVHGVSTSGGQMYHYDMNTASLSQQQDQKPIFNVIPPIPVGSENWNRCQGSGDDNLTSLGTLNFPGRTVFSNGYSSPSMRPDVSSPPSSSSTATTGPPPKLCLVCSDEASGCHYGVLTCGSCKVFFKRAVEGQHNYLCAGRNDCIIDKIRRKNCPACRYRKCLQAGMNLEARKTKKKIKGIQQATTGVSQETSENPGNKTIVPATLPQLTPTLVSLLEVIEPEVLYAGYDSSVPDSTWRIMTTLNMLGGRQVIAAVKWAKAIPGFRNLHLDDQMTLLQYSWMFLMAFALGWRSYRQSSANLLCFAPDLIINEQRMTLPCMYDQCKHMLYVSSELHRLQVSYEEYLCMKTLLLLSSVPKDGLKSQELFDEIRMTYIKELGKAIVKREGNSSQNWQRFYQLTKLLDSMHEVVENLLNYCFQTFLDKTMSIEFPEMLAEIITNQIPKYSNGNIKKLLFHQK
UniProt P11473: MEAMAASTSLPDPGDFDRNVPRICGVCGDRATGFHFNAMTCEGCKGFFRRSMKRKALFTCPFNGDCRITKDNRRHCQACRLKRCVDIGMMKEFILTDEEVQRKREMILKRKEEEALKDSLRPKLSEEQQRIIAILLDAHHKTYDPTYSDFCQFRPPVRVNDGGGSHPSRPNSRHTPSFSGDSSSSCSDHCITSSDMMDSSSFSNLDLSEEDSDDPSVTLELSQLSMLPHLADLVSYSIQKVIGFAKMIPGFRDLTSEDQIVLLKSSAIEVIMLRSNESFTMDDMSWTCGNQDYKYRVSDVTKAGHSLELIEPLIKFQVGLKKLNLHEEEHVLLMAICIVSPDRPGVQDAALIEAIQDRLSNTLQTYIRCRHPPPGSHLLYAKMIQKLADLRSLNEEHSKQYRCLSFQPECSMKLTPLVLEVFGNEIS
UniProt P19793: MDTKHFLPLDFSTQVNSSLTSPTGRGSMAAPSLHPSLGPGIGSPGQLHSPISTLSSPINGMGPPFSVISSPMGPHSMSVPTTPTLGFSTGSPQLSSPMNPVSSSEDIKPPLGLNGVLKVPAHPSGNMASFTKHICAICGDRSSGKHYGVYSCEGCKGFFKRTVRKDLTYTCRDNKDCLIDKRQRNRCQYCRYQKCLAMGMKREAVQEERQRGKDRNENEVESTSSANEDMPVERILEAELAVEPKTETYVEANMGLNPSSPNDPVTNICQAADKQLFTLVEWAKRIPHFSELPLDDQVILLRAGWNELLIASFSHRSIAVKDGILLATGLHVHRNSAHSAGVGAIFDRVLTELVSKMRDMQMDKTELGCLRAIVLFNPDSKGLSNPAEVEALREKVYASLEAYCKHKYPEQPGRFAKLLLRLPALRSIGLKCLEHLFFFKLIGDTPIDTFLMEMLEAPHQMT

[2] = qHTS assay to identify small molecule antagonists of the sonic hedgehog signaling (Shh) pathway (AID 1259369; calls by dose curve; note: potency is the fitted concentration of half-maximal effect; nearly all actives have a fitted effect of over 45% in size); conditions: NIH/3T3 Gli1-Luc reporter, Shh antagonist, luminescence 24 h
Outline: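 For antagonist detection, the reporter line received test compounds together with conditioned medium, incubated 24hr at 37 C, 5% CO2, then luminescence was recorded following 30min room-temperature luciferase reagent incubation.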

[3] = target: Estrogen receptor beta (Homo sapiens) (UniProt Q92731); assay: qHTS assay to identify small molecule agonists of the estrogen receptor beta (ER-beta) signaling pathway (AID 1259377; active = well fitted activation curve with a large enough effect in the signal ratio in the repeat runs, not every such curve was filed as active; inconclusive = weak or mixed curves, or effect the other way; the % refers to the signal ratio; note: potency is the fitted concentration of half-maximal effect); conditions: ER-beta-UAS-bla HEK293T, beta-lactamase FRET ratio, 16 h; activation: at 92.4 µM (top of the series)
[4] = qHTS assay for small molecule disruptors of the mitochondrial membrane potential (AID 720635); conditions: HepG2 mitochondrial membrane potential, Mito-MPS dye ratio; ratio activity, negative = MMP loss: at 83.2 µM (top of the series) unless noted; note: potency is the fitted concentration of half-maximal effect
[5] = target: Glucocorticoid receptor (Homo sapiens) (UniProt P04150); assay: qHTS assay to identify small molecule antagonists of the glucocorticoid receptor (GR) signaling pathway (AID 720692; active = well fitted inhibition curve with a large enough effect in the signal ratio in the repeat runs, not every such curve was filed as active; inconclusive = weak or mixed curves, or effect the other way; inactive = no such curve, though single readings can be large or run the other way; the % refers to the signal ratio; note: % is set by controls: 0 for no effect and ±100 for the full control effect); conditions: GR-bla HeLa, beta-lactamase FRET ratio, dexamethasone-stimulated, 18 h; activity change, negative = inhibition: at 58.5 µM (top of the series)
[6] = qHTS assay for identifying genotoxic compounds that show differential cytotoxicity against isogenic chicken DT40 cell lines with known DNA damage response pathways - wild type cell line (AID 743012); conditions: DT40 wild type chicken cells viability, CellTiter-Glo, 40 h; note: potency is the fitted concentration of half-maximal effect; nearly all actives have a fitted effect of over 60% in size
Outline: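 First, wild type DT40 cells were plated at 300 per well and equilibrated about 0.5 h at 37 C/5% CO2. Next, compounds in DMSO were added and exposure lasted 40 h. Finally, CellTiter-Glo was added for 30 min at room temperature and luminescence recorded.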

[7] = tested on: thyroid hormone receptor (rat, GH3 cells); assay: qHTS assay to identify small molecule agonists of the thyroid receptor (TR) signaling pathway (AID 743066; calls by dose curve; note: % is set by controls: 0 for no effect and ±100 for the full control effect); conditions: GH3.TRE-Luc cells, TR agonist luciferase, 24 h; activation: at 83.9 µM (top of the series)
[8] = target: Vitamin D3 receptor (Homo sapiens) (UniProt P11473); assay: qHTS assay to identify small molecule antagonists of the vitamin D receptor (VDR) signaling pathway (AID 743223; active = well fitted inhibition curve with a large enough effect in the signal ratio in the repeat runs, not every such curve was filed as active; inconclusive = weak or mixed curves, or effect the other way; inactive = no such curve, though single readings can be large or run the other way; the % refers to the signal ratio; note: potency is the fitted concentration of half-maximal effect); conditions: VDR-UAS-bla HEK293T, beta-lactamase FRET ratio, 16 h; activity change, negative = inhibition: at 61 µM (top of the series)
Outline: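 Antagonist mode: compound added to VDR-bla cells alongside agonist 1alpha,25-dihydroxyvitamin D3 (3 nM final), incubation 16 h at 37C. Read-out is LiveBLAzer FRET fluorescence, 2 h at room temperature.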

[9] = target: Retinoic acid receptor RXR-alpha (Homo sapiens) (UniProt P19793); assay: qHTS assay to identify small molecule agonists of the RXR signaling pathway (AID 1159527; calls by dose curve; note: potency is the fitted concentration of half-maximal effect; nearly all actives have a fitted effect of over 35% in size); conditions: HEK293T RXRa-UAS-bla, beta-lactamase ratio, 16 h; activation: at 76.8 µM (top of the series)
[10] = qHTS RealTime-Glo MT Cell Viability Assay in HEK293 cells - 40 hour (AID 1224874); conditions: RealTime-Glo luminescence; note: potency is the fitted concentration of half-maximal effect; nearly all actives have a fitted effect of over 50% in size
Outline: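 Viable HEK293 cells reduce a cell-permeant prosubstrate; the product diffuses out and is consumed by NanoLuc in the medium to give light. Compounds went in after a 5 h incubation and plates were read over the treatment course.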

[11] = Human pregnane X receptor (PXR) small molecule agonists, qHTS cell viability counter screen (AID 1346977); conditions: PXR-Luc HepG2 viability, CellTiter-Fluor, 24 h; note: potency is the fitted concentration of half-maximal effect; nearly all actives have a fitted effect of over 50% in size
Outline: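 Same-well viability read: CellTiter-Fluor added after 23 hr compound exposure, fluorescence measured 1 hr later. Cells were PXR-Luc HepG2 seeded at 2,000/well in 5% charcoal-stripped FBS medium, rested 5 hr before dosing at 37 C.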

O=C(Cl)OCCOC(=O)Cl
inconclusive: Potency [1] 48.6 µM | Potency [2] 2.73 µM | Potency [3] 68.6 µM

O=P(Cl)(Oc1ccccc1)Oc1ccccc1
inconclusive: Potency [4] 61.1 µM | activity change, negative = inhibition [5] -0.681% | Potency [6] 54.5 µM | activation [7] -0.825% | Potency [8] 61.6 µM | Potency [9] 21.9 µM | Potency [10] 54.9 µM | Potency [11] 61.1 µM

Reference: PubChem BioAssay (Tox21)
